Laboratory results published in patent publication US20230057847A1 (Scripps Research, published 2023).

T1: human GLP-2R (human, UniProt O95838 1-553)
T1 sequence (looked up): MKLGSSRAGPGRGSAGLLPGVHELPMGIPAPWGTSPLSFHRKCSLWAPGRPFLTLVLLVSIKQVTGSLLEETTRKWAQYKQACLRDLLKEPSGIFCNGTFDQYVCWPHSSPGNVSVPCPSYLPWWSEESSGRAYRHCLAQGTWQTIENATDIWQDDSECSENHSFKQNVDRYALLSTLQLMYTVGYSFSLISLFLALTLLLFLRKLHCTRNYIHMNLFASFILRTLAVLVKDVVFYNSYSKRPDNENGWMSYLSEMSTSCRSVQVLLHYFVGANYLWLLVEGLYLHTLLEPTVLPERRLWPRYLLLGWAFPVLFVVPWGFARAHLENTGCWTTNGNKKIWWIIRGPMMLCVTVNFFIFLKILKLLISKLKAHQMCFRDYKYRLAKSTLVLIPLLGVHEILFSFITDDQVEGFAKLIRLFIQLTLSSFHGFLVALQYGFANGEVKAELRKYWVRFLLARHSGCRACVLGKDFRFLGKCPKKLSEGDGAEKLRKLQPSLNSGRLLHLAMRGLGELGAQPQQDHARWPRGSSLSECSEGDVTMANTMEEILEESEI


Biological target: T1, human GLP-2R
Experiment: cell-based or functional assay

| Binder | GLP-2R - cAMP 0% FBS/nM (EC50, CRE-luciferase reporter) [nM] |
| --- | --- |
| HGDGSFSDEMNTILDNKAARDFIKWLIQTKITDPSSGAPPPS (staple K1F attached at positions 17, 24 (lysines)) [Conjugate 21: GLP2-2G-1K-EX4 (SEQ ID NO. 16) with staple K1F at positions 17, 24] | 0.14 |
| HGDGSFSDEMNTILDNKAARDFIKWLIQTKITDPSSGAPPPS (staple K1H attached at positions 17, 24 (lysines)) [Conjugate 22: GLP2-2G-1K-EX4 (SEQ ID NO. 16) with staple K1H at positions 17, 24] | 0.23 |
